Tested on: differentiated HUCM cells (hepatocyte-like cells)

Question: For `CO[C@H]1/C=C/O[C@@]2(C)Oc3c(C)c(O)c4c(O)c(c(/C=N/N5CCN(C)CC5)c(O)c4c3C2=O)NC(=O)/C(C)=C\C=C\[C@H](C)[C@H](O)[C@@H](C)[C@@H](O)[C@@H](C)[C@H](OC(C)=O)[C@@H]1C` [RIF, rifampicin], which “PXR expression (RT-PCR)” value is on record?
Answer: induced

Source: patent publication US20080019949A1, “DIFFERENTIATION OF STEM CELLS FROM UMBILICAL CORD MATRIX INTO […] CELLS” (UNIVERSITY OF KANSAS, priority 2006, published 2008)
